ChEMBL document CHEMBL1132850, “Design, synthesis and structure-activity relationship of a series of arginine aldehyde factor Xa inhibitors. Part 1: structures based on the (D)-Arg-Gly-Arg tripeptide sequence” (Bioorg Med Chem Lett, 2000)

Biological target: Prothrombin (Homo sapiens, UniProt P00734)
Assay: Inhibitory activity against coagulation factor II (thrombin).

| Structure (SMILES) | IC50 [µM] |
| --- | --- |
| C[C@@H](NC(=O)C(CCCN=C(N)N)NC(=O)OC(C)(C)C)C(=O)N[C@H](C=O)CCCN=C(N)N (single isomer, unassigned) | > 10 |
| CC(C)(C)OC(=O)NC(CCCN=C(N)N)C(=O)NCC(=O)N[C@H](C=O)CCCN=C(N)N (single isomer, unassigned; 4) | 79 |
